Reference: patent US20050203135A1, “Antagonists for treatment of CD/11CD18 adhesion receptor mediated disorders” (Genentech, Inc., priority 1998, published 2005)

Amino acid sequences for entries named in this document (tags omitted). Residues count along the entry.
UniProt P05107, 23-769: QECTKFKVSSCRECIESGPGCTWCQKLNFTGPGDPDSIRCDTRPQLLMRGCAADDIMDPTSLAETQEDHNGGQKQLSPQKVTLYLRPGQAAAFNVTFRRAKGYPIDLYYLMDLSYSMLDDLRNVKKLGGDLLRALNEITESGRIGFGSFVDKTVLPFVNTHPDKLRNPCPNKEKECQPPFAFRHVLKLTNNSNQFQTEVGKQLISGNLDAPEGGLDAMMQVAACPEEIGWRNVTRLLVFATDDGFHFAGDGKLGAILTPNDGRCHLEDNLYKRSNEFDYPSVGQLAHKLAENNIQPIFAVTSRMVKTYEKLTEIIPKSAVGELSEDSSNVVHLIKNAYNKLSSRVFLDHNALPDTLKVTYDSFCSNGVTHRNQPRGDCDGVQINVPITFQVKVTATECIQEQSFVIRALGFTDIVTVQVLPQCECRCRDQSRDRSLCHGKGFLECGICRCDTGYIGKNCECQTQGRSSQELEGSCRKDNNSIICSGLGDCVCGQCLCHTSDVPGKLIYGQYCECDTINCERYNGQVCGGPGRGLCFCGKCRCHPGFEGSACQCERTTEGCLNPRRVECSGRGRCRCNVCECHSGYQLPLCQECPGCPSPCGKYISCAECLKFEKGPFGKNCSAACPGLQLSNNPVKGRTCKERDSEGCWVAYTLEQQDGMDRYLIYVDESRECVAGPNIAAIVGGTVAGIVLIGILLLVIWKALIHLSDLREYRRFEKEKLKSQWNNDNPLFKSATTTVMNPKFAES
UniProt P20701, 26-1170: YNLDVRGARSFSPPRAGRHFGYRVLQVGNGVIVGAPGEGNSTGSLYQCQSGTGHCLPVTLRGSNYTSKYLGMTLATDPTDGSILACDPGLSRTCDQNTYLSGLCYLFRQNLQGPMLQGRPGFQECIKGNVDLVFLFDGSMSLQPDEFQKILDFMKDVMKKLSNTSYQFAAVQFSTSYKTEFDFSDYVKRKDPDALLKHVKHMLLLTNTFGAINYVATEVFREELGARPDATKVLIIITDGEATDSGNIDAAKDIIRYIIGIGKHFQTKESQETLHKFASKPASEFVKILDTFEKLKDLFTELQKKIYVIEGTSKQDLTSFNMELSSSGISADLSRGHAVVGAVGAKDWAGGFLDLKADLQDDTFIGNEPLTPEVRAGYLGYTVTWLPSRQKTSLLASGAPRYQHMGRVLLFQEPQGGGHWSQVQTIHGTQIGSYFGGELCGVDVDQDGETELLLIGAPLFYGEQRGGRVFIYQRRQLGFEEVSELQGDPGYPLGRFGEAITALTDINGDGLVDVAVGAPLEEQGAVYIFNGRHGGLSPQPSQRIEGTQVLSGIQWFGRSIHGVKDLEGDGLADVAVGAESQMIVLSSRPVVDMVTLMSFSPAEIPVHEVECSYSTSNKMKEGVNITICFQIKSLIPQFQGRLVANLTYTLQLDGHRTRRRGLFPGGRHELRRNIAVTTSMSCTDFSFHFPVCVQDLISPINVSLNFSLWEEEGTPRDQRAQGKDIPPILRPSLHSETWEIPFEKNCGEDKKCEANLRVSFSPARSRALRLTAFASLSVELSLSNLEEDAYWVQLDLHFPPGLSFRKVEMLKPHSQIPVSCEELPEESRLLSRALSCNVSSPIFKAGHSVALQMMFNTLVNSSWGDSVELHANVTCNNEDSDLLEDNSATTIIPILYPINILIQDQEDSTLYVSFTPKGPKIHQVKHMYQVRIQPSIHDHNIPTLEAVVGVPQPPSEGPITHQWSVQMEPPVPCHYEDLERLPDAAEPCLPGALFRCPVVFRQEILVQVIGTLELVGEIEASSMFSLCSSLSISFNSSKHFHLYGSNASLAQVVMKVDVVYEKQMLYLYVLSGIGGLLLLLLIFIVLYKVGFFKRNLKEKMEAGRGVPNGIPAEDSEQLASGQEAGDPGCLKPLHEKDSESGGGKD

Molecular target: CD11a/CD18-ICAM-1 interaction (recombinant human LFA-1 / human 5 domain ICAM-Ig) (Homo sapiens, UniProt P05107+P20701)
Settings: read-out: PLM2

With “2,2,2-trichloroethyl chloroformate [Example 333]” as the substance, how does the IC50 read?
Its IC50 is 90 nM.
